# Literature values as cited in patent US11529340B2 (priority 2016, dated 2022).
# Sequences of proteins named here, by UniProt entry; tags and fusion partners are left off.
# UniProt P21447, whole entry, looked up: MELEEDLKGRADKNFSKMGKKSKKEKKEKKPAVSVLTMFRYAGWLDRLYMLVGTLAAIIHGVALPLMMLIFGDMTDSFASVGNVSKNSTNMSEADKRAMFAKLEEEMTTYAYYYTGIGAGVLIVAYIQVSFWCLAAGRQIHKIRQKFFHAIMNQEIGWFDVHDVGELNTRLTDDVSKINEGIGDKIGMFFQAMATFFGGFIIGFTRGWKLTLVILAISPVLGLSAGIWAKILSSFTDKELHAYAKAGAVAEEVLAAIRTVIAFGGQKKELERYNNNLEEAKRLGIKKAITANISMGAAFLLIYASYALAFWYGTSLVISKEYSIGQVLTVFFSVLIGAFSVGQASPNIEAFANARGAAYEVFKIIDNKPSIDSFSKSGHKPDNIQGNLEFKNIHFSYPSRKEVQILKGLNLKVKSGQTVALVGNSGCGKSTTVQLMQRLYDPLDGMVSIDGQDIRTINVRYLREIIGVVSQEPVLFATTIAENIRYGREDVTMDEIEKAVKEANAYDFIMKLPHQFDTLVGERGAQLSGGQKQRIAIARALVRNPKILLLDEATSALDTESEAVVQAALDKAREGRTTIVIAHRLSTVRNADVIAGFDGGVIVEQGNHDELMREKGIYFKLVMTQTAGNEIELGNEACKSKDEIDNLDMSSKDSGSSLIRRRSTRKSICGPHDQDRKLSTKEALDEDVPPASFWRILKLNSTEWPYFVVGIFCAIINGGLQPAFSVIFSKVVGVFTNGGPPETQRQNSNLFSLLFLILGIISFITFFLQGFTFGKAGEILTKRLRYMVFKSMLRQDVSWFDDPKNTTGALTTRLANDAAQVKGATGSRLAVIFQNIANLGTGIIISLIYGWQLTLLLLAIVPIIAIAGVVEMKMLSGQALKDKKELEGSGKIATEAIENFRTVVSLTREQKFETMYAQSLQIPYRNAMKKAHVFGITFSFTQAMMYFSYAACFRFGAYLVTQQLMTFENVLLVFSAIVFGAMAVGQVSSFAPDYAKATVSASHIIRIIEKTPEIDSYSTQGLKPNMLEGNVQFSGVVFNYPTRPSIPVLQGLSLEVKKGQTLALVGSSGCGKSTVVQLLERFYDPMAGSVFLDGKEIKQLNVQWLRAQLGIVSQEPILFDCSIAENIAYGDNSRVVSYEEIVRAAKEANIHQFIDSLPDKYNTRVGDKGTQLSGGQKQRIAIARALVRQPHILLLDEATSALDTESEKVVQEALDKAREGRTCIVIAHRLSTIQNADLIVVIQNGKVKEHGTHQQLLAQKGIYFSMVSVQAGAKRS
# Target: p-glycoprotein (P-gp) (Mus musculus, UniProt P21447)
# Settings: relative to morphine, fentanyl and meperidine; cited from earlier work
smiles,measurement,value
CN(C)C(=O)C(CCN1CCC(O)(c2ccc(Cl)cc2)CC1)(c1ccccc1)c1ccccc1 [loperamide],susceptibility to export from the CNS by P-gp,"almost ten times that of morphine, fentanyl and meperidine"
